Paper PMC5513865 (British Journal of Pharmacology, 2017)

Chains of the proteins cited; added tags and fusions are not shown. Lines headed by an entry give the natural chain unless they say otherwise; changes in a name come on top.
UniProt P41145: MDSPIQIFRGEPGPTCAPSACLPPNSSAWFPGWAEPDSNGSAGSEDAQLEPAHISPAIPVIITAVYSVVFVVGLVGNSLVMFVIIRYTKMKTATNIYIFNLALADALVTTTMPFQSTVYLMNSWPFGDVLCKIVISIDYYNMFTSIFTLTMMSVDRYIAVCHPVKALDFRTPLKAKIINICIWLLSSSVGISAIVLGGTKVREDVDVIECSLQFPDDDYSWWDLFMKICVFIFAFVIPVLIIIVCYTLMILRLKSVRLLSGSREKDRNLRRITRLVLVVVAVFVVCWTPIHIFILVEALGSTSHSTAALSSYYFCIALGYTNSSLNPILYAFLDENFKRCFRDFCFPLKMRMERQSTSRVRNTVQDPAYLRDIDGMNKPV

Assays:
human κ receptor [1] = test: Bias analysis G protein vs β-arrestin2 (Black-Leff operational model)
human κ receptor [2] = molecular target: T1, human κ receptor (Homo sapiens, UniProt P41145); test: [35S]-GTPγS binding assay, CHO-hκ membranes (G protein coupling); type: biochemical
human κ receptor [3] = molecular target: T1, human κ receptor; test: PathHunter β-arrestin2 recruitment assay, U2OS-hκ receptor-β-arrestin2 cells; type: cell-based
C57BL/6J wild-type mice [4] = test: 55°C warm-water tail withdrawal assay after i.c.v. administration; type: in vivo, mouse
C57BL/6J wild-type mice [5] = test: Place conditioning to determine CPP/CPA; conditions: i.c.v., HS665 30 nmol, HS666 150 nmol, U50,488 100 nmol, morphine 30 nmol; 2 days conditioning
[6] = system: κ receptor gene-disrupted 'knockout' (κ-KO) mice; test: 55°C warm-water tail withdrawal assay in κ-KO mice; conditions: i.c.v., HS665 10 nmol, HS666 30 nmol, U50,488 30 nmol; 20 min
[7] = system: μ receptor gene-disrupted 'knockout' (μ-KO) mice; test: 55°C warm-water tail withdrawal assay in μ-KO mice; type: in vivo, mouse; conditions: i.c.v., HS665 10 nmol, HS666 30 nmol, U50,488 30 nmol; 20 min
[8] = relative to maximal effect of U69,593 (100%)

Substance	bias factor (G protein over β-arrestin2) (human κ receptor [1]; compared with U69,593 normalized to 1)	ΔΔlog(τ/KA) G protein - β-arrestin2 (human κ receptor [1]; relative to U69,593)	log(τ/KA) G protein (human κ receptor [2]; HS665 and U69,593 assessed in parallel)	log(τ/KA) G protein (human κ receptor [2]; HS666 and U69,593 assessed in parallel)	EC50 (human κ receptor [2]; read-out: G protein coupling EC50, CHO-hκ membranes, n = 5)	Δlog(τ/KA) G protein (human κ receptor [2]; relative to U69,593)	G protein coupling Emax (human κ receptor [2]; [8])	log(τ/KA) β-arrestin2 (human κ receptor [3]; operational model)	Δlog(τ/KA) β-arrestin2 (human κ receptor [3]; relative to U69,593)	β-arrestin2 recruitment Emax (human κ receptor [3]; [8])	antinociceptive ED50 and 95% C.I. (C57BL/6J wild-type mice [4]; 10 min)	antinociceptive ED50 and 95% C.I. (C57BL/6J wild-type mice [4]; 20 min)	antinociceptive ED50 and 95% C.I. (C57BL/6J wild-type mice [4]; 30 min)	antinociceptive ED50 and 95% C.I. (C57BL/6J wild-type mice [4]; 40 min)	antinociceptive ED50 and 95% C.I. (C57BL/6J wild-type mice [4]; 50 min)	antinociceptive ED50 and 95% C.I. (C57BL/6J wild-type mice [4]; 60 min)	conditioned place preference or aversion (C57BL/6J wild-type mice [5])	antinociceptive activity in κ-KO mice compared with wild-type [6]	antinociceptive activity in μ-KO mice compared with wild-type [7]
(+)‐(5α,7α,8β)‐(−)N‐methyl‐N‐[7‐(1‐pyrrolidinyl)‐1‐oxaspiro(4,5)dec‐8‐yl]benzeneacetamide	1	0	7.98 ± 0.11	7.59 ± 0.17	18.2 nM	0	100%	7.17 ± 0.16	0	100%	–	–	–	–	–	–	–	–	–
(±)‐trans‐3,4‐dichloro‐N‐methyl‐N‐[2‐(1‐pyrrolidinyl)cyclohexyl]benzeneacetamide	–	–	–	–	–	–	–	–	–	–	8.94 (6.55 – 12.0) nmol	8.31(5.47 – 12.0) nmol	7.21 (4.02–11.1) nmol	9.56 (6.17 – 14.8) nmol	11.1 (7.83 –16.3) nmol	14.2 (10.7 – 20.4) nmol	significant place aversion	significant loss	did not differ
